miR-21 FLuc: miR-21 reporter, rising signal; Potency, µM (titrated, usually from 38.3 µM), without a hit: at the highest dose reporter change, positive = more light; AID 2288; 340,000 tested, under 10 active; HeLa miR-21 FLuc reporter, luciferase, 48 h; active = well fitted rising curve with a large enough effect; inconclusive = small, poorly fitted or top-dose-only effect; inactive = no such curve, though single readings can be large or run the other way;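 note: % of control where 0% means no effect; miR-21 action dims this reporter so a rising signal means less miR-21 action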
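Luminescence from a firefly luciferase reporter carrying a miR-21 binding site downstream, stably expressed under a CMV promoter in HeLa cells that make miR-21 endogenously, reports miRNA modulation after 48 h compound exposure up to approximately 40uM final.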
p53 reactivation: mutant p53 re-activation in reporter cells; H1299 p53-A138V BP100-luciferase reporter, luminescence, 24 h; 320,000 compounds, 0.063% hits; Potency, µM (highest dose often 92.2 µM), inactives show top-dose activity change, positive = activation, actives largely listed as activators; also: potency is read from the fitted curve at half-maximal effect; % of control where 0% means no effect; nearly all actives have a fitted effect of over 45% in size
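H1299 (p53-null), stable ts p53-A138V + BP100-Luc; 1000 cells/well, Opti-MEM/10% FBS; cpd 4 pt, 1:5; 24 h, 37 deg C, 5% CO2; detection reagent 10 min RT; luminescence.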
Nrf2 activator: activators of Nrf2 (ARE) signaling; 410,000 compounds, 0.31% hits; Potency, µM (titrated, usually from 46.1 µM), for the others: at the top dose activation, hits mostly activators; AREc32 ARE-luciferase reporter (MCF7-derived line), luminescence, 24 h; also: potency is read from the fitted curve at half-maximal effect; % of control where 0% means no effect; nearly all actives have a fitted effect of over 65% in size
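Nrf2 activation is followed as ARE-luciferase induction in the AREc32 line after one day of compound treatment; luminescence is read with Steady-Glo.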
A549 tox: kills or reduces viability of A549 cells in Nrf2 counter-screen; A549 ARE-Fluc cells, CellTiter-Fluor viability, 18-24 h; Potency, µM (highest dose often 46 µM), for inactives: at the top dose activity change, negative = cytotoxicity, usual class: inhibitors; 390,000 compounds, 0.16% hits; AID 504648; also: potency is read from the fitted curve at half-maximal effect; % is scaled to controls: 0 for no effect and ±100 for the full control effect
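Cytotoxicity counterscreen: CellTiter-Fluor fluorescence was measured in A549 ARE_Fluc cells after 18-24 h of compound exposure in a concentration series. The subsequent BugLite luminescent read reports ARE-luciferase activity.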
ClpP mod: qHTS Assay for Activators of ClpP; ATP-dependent Clp protease proteolytic subunit (Bacillus subtilis (strain 168)), P80244; purified B. subtilis ClpP, FRET peptide cleavage, 20 min; Potency, µM (titrated, usually from 57.5 µM), for the others: at the highest dose activity change, negative = active; 340,000 compounds, 1.9% hits; active = well fitted falling curve with a large enough effect; inconclusive = small, poorly fitted or top-dose-only effect; inactive = no such curve, though single readings can be large or run the other way; also: potency is read from the fitted curve at half-maximal effect; the source files actives as falling curves though it sought activators and does not explain the sign; nearly all actives have a fitted effect of over 65% in size
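FRET quenching reversal measured ClpP activation: 10 microg/mL B. subtilis ClpP at pH 8 with the FRET-FV decapeptide, read at 430 nm after 320 nm excitation. The 20-min minus 0-min signal was scaled between DMSO/no-enzyme wells and ADEP (5.8 microM final).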
Nrf2 block: Nrf2 pathway inhibition. 360,000 compounds, 2.1% hits. Potency, µM (titrated, usually from 46 µM), without a hit: top-dose activity change, negative = inhibition, most hits filed as inhibitors. AID 504444. A549 ARE-Fluc reporter, luciferase luminescence, 18-24 h; also: potency is read from the fitted curve at half-maximal effect; % is scaled to controls: 0 for no effect and ±100 for the full control effect; nearly all actives have a fitted effect of over 60% in size
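Two sequential reads on A549 ARE_Fluc cells exposed to compound for 18-24 h: a CellTiter-Fluor fluorescence read for viability, then a luciferase luminescence read for Nrf2/ARE activity.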
* hit, by the source's call; ? = inconclusive; / = no result given. A selection: hits, their analogues and other compounds. The true share with any hit is near 3.7%. Unless noted, calls follow the shape of the dose curve; as a rule, active = well fitted curve in the direction sought with a large enough effect; inconclusive = small, poorly fitted or top-dose-only effect, or another doubt; inactive = no such curve, though single readings can be large; an effect the other way counts as inactive or inconclusive.

SMILES	miR-21 FLuc	p53 reactivation	Nrf2 activator	A549 tox	ClpP mod	Nrf2 block
Cc1ccc(Oc2nnc(-c3cccs3)c3ccccc23)cc1C	-4%	-8%	1%	-8%	-1%	18µM*
CCOC(=O)c1cc2c(=O)n3ccccc3nc2n(CCCOC)c1=NC(C)=O	-1%	1%	0%	16%	35µM*	?
CCCn1c(=NC(=O)c2ccco2)c(C(=O)OCC)cc2c(=O)n3ccccc3nc21	-4%	30%	1%	-1%	18µM*	13%
CCOC(=O)c1cc2c(=O)n3cccc(C)c3nc2n(CC2CCCO2)c1=NC(C)=O (stereo not given)	/	/	1%	-8%	1.3µM*	-1%
Fc1ccc(Nc2nc3ccccc3n3cnnc23)c(F)c1	-21%	/	?	0%	?	3%
Cc1ccc(C)n1-c1nnc(N2CCC(C(=O)Nc3ccccc3Br)CC2)s1	-1%	/	25%	3%	11%	-4%
CCOc1ccc2[nH]c(=O)c(CN(CCO)C(=O)c3ccc(F)cc3)cc2c1	-3%	-2%	0%	-3%	22µM*	6%
COc1ccc2cc(CN(CCO)C(=O)c3ccc(Br)cc3)c(=O)[nH]c2c1	3%	-5%	1%	-13%	-19%	21µM*
CCOc1ccc2[nH]c(=O)c(CN(CCO)C(=O)c3ccc(OC)c(OC)c3)cc2c1	-7%	-2%	-1%	6%	28µM*	/
COc1ccc2cc(CN(CCO)C(=O)c3ccccc3F)c(=O)[nH]c2c1	-9%	1%	0%	0%	?	6%
CCCCN(Cc1cc2cc(OC)ccc2[nH]c1=O)C(=O)COc1ccccc1	/	/	0%	-1%	-8%	-10%
CCOc1ccc2[nH]c(=O)c(CN(CCO)C(=O)c3ccccc3F)cc2c1	-14%	-9%	2%	-3%	32µM*	-7%
CCNC(=S)N(CCN(C)C)Cc1cc2cc(OCC)ccc2[nH]c1=O	-3%	2%	0%	1%	1%	5%
COc1ccc(NC(=O)c2cccc(N3CCCS3(=O)=O)c2)cc1OC	-15%	/	9%	-1%	-1%	18%
Cc1ccc(C)c(-n2nnc(-c3nc(-c4ccc(Cl)cc4)no3)c2N)c1	-41%	/	5%	4%	1%	?
Cc1sc(NC(=O)CSc2nnc(-c3ccccc3)o2)c(C#N)c1C	-25%	4%	3%	-11%	0%	?
Cc1sc(NC(=O)CSc2nc(N)cc(N)n2)c(C#N)c1C	-10%	-3%	2%	-7%	-1%	21µM*
O=C(NCCc1ccc(Cl)cc1)c1ccc(Cn2c(=O)c3cccn3c3cccnc32)cc1	-7%	/	14%	-7%	5%	-28%
Cc1ccnc(N(C(=O)c2cccs2)C(=O)c2cccs2)c1	-44%	?	10µM*	0%	-2%	5%
O=C(c1cccs1)N(C(=O)c1cccs1)c1ccc(Br)cn1	-20%	?	?	?	2%	?

Nrf2 activator, hit marks shown above
molecule | miR-21 FLuc | p53 reactivation | Nrf2 activator | ClpP mod
Cc1ccnc(N(C(=O)c2cccs2)C(=O)c2cccs2)c1 | -44% | ? | 10µM* | -2%

One compound at a time, as listed above. Order of values: miR-21 FLuc | p53 reactivation | Nrf2 activator | A549 tox | ClpP mod | Nrf2 block
Shown for CCOC(=O)c1cc2c(=O)n3cccc(C)c3nc2n(CC2CCCO2)c1=NC(C)=O (stereo not given) → / | / | 1% | -8% | 1.3µM* | -1%
Shown for Cc1sc(NC(=O)CSc2nnc(-c3ccccc3)o2)c(C#N)c1C → -25% | 4% | 3% | -11% | 0% | ?

Next section:
SMILES	miR-21 FLuc	p53 reactivation	Nrf2 activator	A549 tox	ClpP mod	Nrf2 block
CC(=O)N1c2ccc(S(=O)(=O)NCCC(=O)NCCc3ccc(Cl)cc3)cc2CC1C (stereo not given)	19%	-8%	0%	-8%	0%	21µM*
CC(=O)N1c2ccc(S(=O)(=O)NCCC(=O)Nc3ccc(OC(F)(F)F)cc3)cc2CC1C (stereo not given)	14%	6%	2%	-7%	0%	18µM*
CC(=O)N1c2ccc(S(=O)(=O)NCCC(=O)Nc3ccc(Cl)cc3)cc2CC1C (stereo not given)	/	/	2%	/	0%	/
CC(=O)N1CCc2cc(S(=O)(=O)C(C)CC(=O)Nc3ccc(OC(F)(F)F)cc3)ccc21 (stereo not given)	-10%	8%	-1%	-8%	-1%	12µM*

Screens (PubChem)
